Results taken from patent EP4714469A1, “PHARMACEUTICAL COMPOSITION COMPRISING ANTIBODY-DRUG CONJUGATE” (CSPC Megalith Biopharmaceutical Co., Ltd., priority 2023, dated 2024).
Read-outs that look alike come from different tables or passages of the source.

How the values were obtained:
[1] = tested on: SK-BR-3 and HEK293-Luc cells; experiment: Assay 7: in vitro bystander effect, positive cell co-culture; format: cell-based; details: 4 days
Description: (§1) The released small molecule payloads could cause apoptosis of co-cultured negative cells in the periphery, known as the bystander effect. In this study, reporter gene cells HEK293-Luc were co-cultured with positive cell line SK-BR-3 and negative control cell MDA-MB-468 for four days. The effect of released small molecule payloads on the growth of HEK293-Luc was determined by adding a chemiluminescent substrate.
(§2) • 3.3.1 When the cell confluence reached 90%, SK-BR-3, MDA-MB-468, and HEK293-Luc cells were digested with trypsin and collected separately, and the cells were resuspended in their respective media. • 3.3.2 The resuspended target cells were gently pipetted several times to form a single-cell suspension. […] Fifty microliters per well were added to a 96-well transparent flat-bottom culture plate. […] Fifty microliters per well were added to the cell-inoculated 96-well transparent flat-bottom culture plate and placed in a 37°C CO2 incubator for 4 days. • 3.3.5 After incubation, the plate was removed from the incubator, and the temperature was allowed to equilibrate to room temperature. Bright-Glo™ Luciferase Assay System was added to the plate at 100µL per well, and chemiluminescence was read after 5-15 minutes in the dark. • 4. […] See Table 13 and Figure 17 for the test result. Table 13: Inhibition rate of the antibody-drug conjugates of the present invention on fluorescent cells

[2] = 0.5% BSA-PBS, 37°C
[3] = tested on: MDA-MB-468 and HEK293-Luc cells; experiment: Assay 7: in vitro bystander effect, negative cell co-culture; format: cell-based; details: 4 days
Description: as §1, §2

SK-BR-3 cells = experiment: In-vitro proliferation inhibition, resazurin (procedure 1); format: cell-based, human; details: 3 days
Description: The object of this assay was to detect the inhibitory activity of the antibody-drug conjugate of the present invention on the in-vitro proliferation of SK-BR-3 (ATCC/HTB-30) tumor cells, human colorectal cancer cells DiFi, human lung cancer gefitinib resistant cell PC9-GR, or human lung cancer mutant cell PC-9 (Dell9-T790M-C797S). The cells were treated in vitro with compounds of different concentrations. After culture, resazurin was added to read the fluorescence values of ex550nm/em610nm, and the data were fitted with four parameters to obtain the IC50 values, thereby calculating the biological activities of the compound.
• 3.1 Culture medium: DMEM, 10% FBS, 1×bispecific antibody • 3.2 Cell culturing: Frozen SK-BR-3/MDA-MB-468 cells were taken out of liquid nitrogen and revived in a 75cm^2 culture vessel for culturing. […]
• 3.8.1 After incubation, 20µL of 0.03% resazurin (1×PBS diluted) was added to each well and gently shaken for 10-15 seconds. • 3.8.2 After incubating at 37°C for 3-4 hours, the plate was read using a microplate reader with the following parameters: • Exciting light: 550nm • Emitting light: 610nm • Integration time: 50 • Shaking: 15 seconds, vortex • Reading: top reading • Number of reading/well: 1 • Gain: optimization setting (between 35 and 42) […]

Substance: DP001-DXD ADC (DAR=7.0): DP001 conjugated with commercially available Deruxtecan [reference compound]
- Inhibition rate ([1]; SKBR3+HEK293-GLP1, 100 ng/ml): 10.0%
- Inhibition rate ([1]; SKBR3+HEK293-GLP1, 500 ng/ml): 16.4%
- Inhibition rate ([1]; SKBR3+HEK293-GLP1, 1000 ng/ml): 17.1%
- Dropping rate (%) ([2]; 0 h): 0.02%
- Dropping rate (%) ([2]; 120 h): 0.16%
- Dropping rate (%) ([2]; 168 h): 0.14%
- Dropping rate (%) ([2]; 336 h): 0.41%
- Dropping rate (%) ([2]; 504 h): 3.90%
- Dropping rate (%) ([2]; […]): 0.16%
- Inhibition rate ([3]; MDA-MB-468+HEK293-GLP1, 100 ng/ml): 3.4%
- Inhibition rate ([3]; MDA-MB-468+HEK293-GLP1, 500 ng/ml): 2.6%
- Inhibition rate ([3]; MDA-MB-468+HEK293-GLP1, 1000 ng/ml): 2.7%
- IC50 value (SK-BR-3 cells): 7.2481 ng/mL
